Laboratory results as given in publication PMC2132894.

Amino acid sequences for entries named in this document (tags omitted).
UniProt O35346, whole entry: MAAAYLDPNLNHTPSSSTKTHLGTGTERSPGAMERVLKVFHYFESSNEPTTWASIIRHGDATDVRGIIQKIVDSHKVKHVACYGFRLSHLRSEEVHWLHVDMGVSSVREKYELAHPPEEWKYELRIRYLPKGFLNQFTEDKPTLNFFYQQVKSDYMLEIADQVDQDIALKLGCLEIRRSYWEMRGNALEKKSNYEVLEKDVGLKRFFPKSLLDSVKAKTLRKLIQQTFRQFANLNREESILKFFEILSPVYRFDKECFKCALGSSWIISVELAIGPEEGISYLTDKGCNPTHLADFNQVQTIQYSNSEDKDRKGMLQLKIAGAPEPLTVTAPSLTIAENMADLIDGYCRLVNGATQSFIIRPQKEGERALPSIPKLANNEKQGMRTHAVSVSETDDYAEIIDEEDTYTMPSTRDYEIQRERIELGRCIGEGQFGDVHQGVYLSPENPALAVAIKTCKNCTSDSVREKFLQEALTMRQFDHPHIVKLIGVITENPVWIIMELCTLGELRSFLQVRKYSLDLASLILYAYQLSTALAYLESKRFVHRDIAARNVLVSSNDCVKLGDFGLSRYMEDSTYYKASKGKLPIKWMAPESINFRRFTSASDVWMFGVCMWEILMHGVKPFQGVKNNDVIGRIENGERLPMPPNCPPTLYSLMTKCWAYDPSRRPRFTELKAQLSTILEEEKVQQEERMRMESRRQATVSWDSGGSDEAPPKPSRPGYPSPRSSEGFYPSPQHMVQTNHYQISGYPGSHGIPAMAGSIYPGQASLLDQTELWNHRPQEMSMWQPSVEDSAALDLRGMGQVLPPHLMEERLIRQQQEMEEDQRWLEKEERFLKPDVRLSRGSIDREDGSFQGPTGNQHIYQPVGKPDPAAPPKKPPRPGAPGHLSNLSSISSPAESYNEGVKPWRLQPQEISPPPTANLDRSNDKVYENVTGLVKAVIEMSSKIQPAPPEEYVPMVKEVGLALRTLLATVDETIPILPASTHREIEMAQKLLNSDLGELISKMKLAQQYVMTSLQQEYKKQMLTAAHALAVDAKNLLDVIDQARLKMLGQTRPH

Experiments:
[1] = biological target: focal adhesion kinase (FAK) of trypsinized cells (rat (endogenous in REF-2A)) (UniProt O35346); assay: co-IP
[2] = biological target: focal adhesion kinase (FAK) of mitotic cells (rat (endogenous in REF-2A)) (UniProt O35346); assay: co-IP

- percent of the level associated with interphase FAK [1]: 70%
- percent of the level associated with interphase FAK [2]: 13%
Substance: c-Src (from UniProt Q9WUD9-1 1-536) (natural protein)
